Laboratory results as given in patent publication US20100144868A1, “Novel Neuroprotective Compounds and Uses Thereof” (Ramot At Aviv University Ltd., priority 2005, published 2010).
Like-named read-outs stand apart in the source and are kept apart here.

2,2-fullerenyl-malonic acid bis(adamantan-1-ylcarbamate-diethyleneglycol) ester [Compound 16]
Maximal aqueous concentration (0.1% DMSO content in final aqueous solution): 0.07 10^−5 M
Maximal aqueous concentration (0.5% DMSO content in final aqueous solution): 0.35 10^−5 M
Maximal aqueous concentration (1.0% DMSO content in final aqueous solution): 1.40 10^−5 M
